Molecular target: human TLR7 (Homo sapiens (Human), UniProt Q9NYK1)
Assay: HEK-Blue-hTLR7 cells assay (SEAP reporter)
Format: cell-based
Conditions: HEK-Blue-hTLR7 (EC50 (μM)), 20 hrs
Procedure: A stable HEK-Blue-hTLR7 cell line was purchased from InvivoGen (Cat.#: hkb-htlr7, San Diego, Calif., USA). These cells were designed for studying the stimulation of human TLR7 by monitoring the activation of NF-κB. […] Therefore the reporter expression was regulated by the NF-κB promoter upon stimulation of human TLR7 for 20 hrs. The cell culture supernatant SEAP reporter activity was determined using QUANTI-Blue™ kit (Cat.#: rep-qb1, Invivogen, San Diego, Ca, USA) at a wavelength of 640 nm, a detection medium that turns purple or blue in the presence of alkaline phosphatase.
HEK-Blue-hTLR7 cells were incubated at a density of 250,000˜450,000 cells/mL in a volume of 180 μL in a 96-well plate in Dulbecco's Modified Eagle's medium (DMEM) containing 4.5 g/L glucose, 50 U/mL penicillin, […], […], 2 mM L-glutamine, 10% (V/V) heat-inactivated fetal bovine serum for 24 hrs. Then the HEK-Blue-hTLR-7 cells were incubated with addition of 20 μL test compound in a serial dilution in the presence of final DMSO at 1% and perform incubation under 37° C. in a CO2 incubator for 20 hrs. Then 20 μL of the supernatant from each well was incubated with 180 μL Quanti-blue substrate solution at 37° C. for 2 hrs and the absorbance was read at 620˜655 nm using a spectrophotometer. […]

By UniProt entry, the sequences of proteins in these tests, tags left out. Residues count along the entry.
UniProt Q9NYK1, 27-1049: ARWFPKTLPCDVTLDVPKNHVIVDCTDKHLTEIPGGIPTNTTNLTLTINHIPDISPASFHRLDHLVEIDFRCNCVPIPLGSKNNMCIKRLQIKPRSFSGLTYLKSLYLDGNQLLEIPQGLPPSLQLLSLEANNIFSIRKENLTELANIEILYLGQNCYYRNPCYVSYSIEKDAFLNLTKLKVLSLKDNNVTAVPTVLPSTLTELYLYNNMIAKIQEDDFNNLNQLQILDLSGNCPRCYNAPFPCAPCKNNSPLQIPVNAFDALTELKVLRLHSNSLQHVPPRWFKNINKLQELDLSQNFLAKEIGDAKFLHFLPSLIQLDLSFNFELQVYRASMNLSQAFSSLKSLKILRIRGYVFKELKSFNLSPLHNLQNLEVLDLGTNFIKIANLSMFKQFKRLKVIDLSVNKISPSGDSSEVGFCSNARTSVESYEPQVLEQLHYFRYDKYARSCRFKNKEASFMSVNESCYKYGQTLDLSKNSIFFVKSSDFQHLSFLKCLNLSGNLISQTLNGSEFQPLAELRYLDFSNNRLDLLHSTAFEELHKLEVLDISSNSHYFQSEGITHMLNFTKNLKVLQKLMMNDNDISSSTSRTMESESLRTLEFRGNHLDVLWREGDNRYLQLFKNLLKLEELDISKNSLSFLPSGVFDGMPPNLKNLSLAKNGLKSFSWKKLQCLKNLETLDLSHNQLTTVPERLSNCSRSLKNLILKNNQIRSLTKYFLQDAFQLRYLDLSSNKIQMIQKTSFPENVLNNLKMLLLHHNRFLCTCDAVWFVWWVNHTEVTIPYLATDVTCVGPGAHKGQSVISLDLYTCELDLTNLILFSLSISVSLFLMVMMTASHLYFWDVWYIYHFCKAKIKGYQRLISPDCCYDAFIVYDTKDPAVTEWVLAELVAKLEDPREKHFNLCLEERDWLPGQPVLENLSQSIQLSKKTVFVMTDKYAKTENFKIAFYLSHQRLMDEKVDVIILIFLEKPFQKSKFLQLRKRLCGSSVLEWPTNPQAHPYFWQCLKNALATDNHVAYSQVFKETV

## COCCS(=N)(=O)c1nc(N)c2[nH]c(=O)n(Cc3ccccc3)c2n1 (single isomer, unassigned) [Example 3-A, 6-Amino-9-benzyl-2-(2-methoxyethylsulfonimidoyl)-7H-purin-8-one]
  EC50: 0.27 µM

— patent US9708325B2, “Sulfonimidoylpurinone compounds and derivatives for the treatment and prophylaxis of virus infection” (Hoffmann-La Roche Inc., priority 2015, dated 2017)
